This is an account of results in patent US5030451A, “Topical slenderizing formulation containing cafeine carboxylic acid derivatives neutralized by organic bases, preparation thereof, and their use in the treatment of cellulite” (Pierre Fabre S.A., priority 1988, dated 1991).

For data set [1] the following is noted: in water.
The conditions of data set [2]: carbon 14 labelled; salifying agent is an organic base.

Substance “3-nicotinol caffeine carboxylate [Preparation 1]” had a Solubility in data set [1] of 2%. In data set [2], the “rate of transcutaneous passage” value is recorded as “faster”.
Turning to “Creatinol caffeine carboxylate [Preparation 5]”, in data set [1], the Solubility worked out at 12%.
